Data published in patent US10912763B2 (priority 2010, dated 2021).
Like-named read-outs stand apart in the source and are kept apart here.

Legend:
[1] = Storage stability of SMEDDS hard gelatin capsules (25° C./60% RH and 40° C./75% RH); conditions: for Content of decomposition product 6′-fluoro-4-phenyl-4′,9′-dihydro-3′H-spiro[cyclohex-3-ene-1,1′-pyrano[3,4-b]indole]: SMEDDS hard gelatin capsule, 40° C. and 75% rh
[2] = Bioavailability study after single oral administration (capsule or tablet vs oral solution); conditions: single oral dose of 400 μg, independent from the galenic formulation
[3] = system: acute post-operative pain following orthopedic surgery (bunionectomy); conditions: for sum of pain intensity differences, LS mean / sum of pain intensity differences, LS mean Δplacebo / LS mean Δplacebo, sum of pain intensity differences / LS mean, sum of pain intensity differences / Sum of pain intensity differences, LS mean Δplacebo / Sum of pain intensity differences, LS mean: 2 to 10 hour period; for sum of pain intensity differences, LS mean / sum of pain intensity differences, LS mean Δplacebo: ANCOVA; for TEAE: ASAT increased / TEAE: Dizziness / TEAE: Hot flush / TEAE: Hyperhidrosis / TEAE: Nausea / TEAE: Pruritus / TEAE: Somnolence / TEAE: Vomiting: 100% = total number of subjects in treatment group; for Sum of pain intensity differences, LS mean: hemicitrate oral solution in Macrogol 400

## CN(C)[C@]1(c2ccccc2)CC[C@]2(CC1)OCCc1c3cc(F)ccc3[nH]c12
[1]; SMEDDS capsules 50 μg and 400 μg, 25° C./60% RH and 40° C./75% RH, 6 months
  Unity of the drug content, drug's purity, release of the drug on storage: met the demands of the ICH and FDA guidelines
[1]; dosage 50 μg, 1 month
  Content of decomposition product 6′-fluoro-4-phenyl-4′,9′-dihydro-3′H-spiro[cyclohex-3-ene-1,1′-pyrano[3,4-b]indole]: 0.16%
[1]; dosage 50 μg, 3 months
  Content of decomposition product 6′-fluoro-4-phenyl-4′,9′-dihydro-3′H-spiro[cyclohex-3-ene-1,1′-pyrano[3,4-b]indole]: 0.25%
[1]; dosage 50 μg, 6 months
  Content of decomposition product 6′-fluoro-4-phenyl-4′,9′-dihydro-3′H-spiro[cyclohex-3-ene-1,1′-pyrano[3,4-b]indole]: 0.42%
[1]; dosage 400 μg, 1 month
  Content of decomposition product 6′-fluoro-4-phenyl-4′,9′-dihydro-3′H-spiro[cyclohex-3-ene-1,1′-pyrano[3,4-b]indole]: 0.09%
[1]; dosage 400 μg, 3 months
  Content of decomposition product 6′-fluoro-4-phenyl-4′,9′-dihydro-3′H-spiro[cyclohex-3-ene-1,1′-pyrano[3,4-b]indole]: 0.12%
[1]; dosage 400 μg, 6 months
  Content of decomposition product 6′-fluoro-4-phenyl-4′,9′-dihydro-3′H-spiro[cyclohex-3-ene-1,1′-pyrano[3,4-b]indole]: 0.25%
[2]
  Safety and tolerability: safe and well tolerated
[3]; 200 μg dose
  Difference to placebo groups on the primary parameter: no statistically significant difference
[3]; 200 μg single dose
  deaths: 0
  subjects with SAE's: 0
  subjects with TEAE(s) (n (%)): 37 (67.3) n (%)
  subjects with TEAE(s): related (n (%)): 24 (43.6) n (%)
  subjects with TEAE(s): serious (n (%)): 0 n (%)
  total number of TEAE's: related (n (%)): 37 (49.3) n (%)
  sum of pain intensity differences, LS mean: 46.05
  sum of pain intensity differences, LS mean Δplacebo: −3.08
  TEAE: ASAT increased: 1.8%
  TEAE: Dizziness: 20.0%
  TEAE: Hot flush: 1.8%
  TEAE: Hyperhidrosis: 0%
  TEAE: Nausea: 29.1%
  TEAE: Pruritus: 0%
  TEAE: Somnolence: 1.8%
  TEAE: Vomiting: 9.1%
[3]; 400 μg dose
  Difference to placebo groups on the primary parameter: statistically significant difference
[3]; 400 μg dose, vs morphine 60 mg
  Efficacy compared with morphine: comparable in efficacy
[3]; 400 μg single dose
  deaths: 0
  subjects with SAE's: 0
  subjects with TEAE(s) (n (%)): 38 (77.6) n (%)
  subjects with TEAE(s): related (n (%)): 32 (65.3) n (%)
  subjects with TEAE(s): serious (n (%)): 0 n (%)
  total number of TEAE's: related (n (%)): 74 (59.2) n (%)
  sum of pain intensity differences, LS mean: 35.28
  sum of pain intensity differences, LS mean Δplacebo: −13.85
  TEAE: ASAT increased: 6.1%
  TEAE: Dizziness: 22.4%
  TEAE: Hot flush: 4.1%
  TEAE: Hyperhidrosis: 0%
  TEAE: Nausea: 49.0%
  TEAE: Pruritus: 6.1%
  TEAE: Somnolence: 10.2%
  TEAE: Vomiting: 20.4%
[3]; 600 μg dose
  Difference to placebo groups on the primary parameter: statistically significant difference
[3]; 600 μg dose, vs morphine 60 mg
  Incidence of adverse events: comparable to that of the morphine patient group
[3]; 600 μg single dose
  deaths: 0
  subjects with SAE's: 0
  subjects with TEAE(s) (n (%)): 48 (84.2) n (%)
  subjects with TEAE(s): related (n (%)): 43 (75.4) n (%)
  subjects with TEAE(s): serious (n (%)): 0 n (%)
  total number of TEAE's: related (n (%)): 146 (73.7) n (%)
  sum of pain intensity differences, LS mean: 35.15
  sum of pain intensity differences, LS mean Δplacebo: −13.98
  TEAE: ASAT increased: 1.8%
  TEAE: Dizziness: 26.3%
  TEAE: Hot flush: 7.0%
  TEAE: Hyperhidrosis: 5.3%
  TEAE: Nausea: 64.9%
  TEAE: Pruritus: 3.5%
  TEAE: Somnolence: 14.0%
  TEAE: Vomiting: 49.1%
[3]; single dose 200 μg
  LS mean Δplacebo, sum of pain intensity differences: −3.08
  LS mean, sum of pain intensity differences: 46.05
  Sum of pain intensity differences, LS mean Δplacebo: −3.08
  Sum of pain intensity differences, LS mean: 46.05
  TEAE ASAT increased, subjects: 1.8%
  TEAE Dizziness, subjects: 20.0%
  TEAE Hot flush, subjects: 1.8%
  TEAE Hyperhidrosis, subjects: 0%
  TEAE Nausea, subjects: 29.1%
  TEAE Pruritus, subjects: 0%
  TEAE Somnolence, subjects: 1.8%
  TEAE Vomiting, subjects: 9.1%
  deaths: 0
  subjects with SAE's: 0
  subjects with TEAE(s): 37 (67.3) n (%)
  subjects with TEAE(s), related: 24 (43.6) n (%)
  subjects with TEAE(s), serious: 0 n (%)
  total number of TEAE's: 75 n
  total number of TEAE's, related: 37 (49.3) n (%)
[3]; single dose 400 μg
  LS mean Δplacebo, sum of pain intensity differences: −13.85
  LS mean, sum of pain intensity differences: 35.28
  Sum of pain intensity differences, LS mean Δplacebo: −13.85
  Sum of pain intensity differences, LS mean: 35.28
  TEAE ASAT increased, subjects: 6.1%
  TEAE Dizziness, subjects: 22.4%
  TEAE Hot flush, subjects: 4.1%
  TEAE Hyperhidrosis, subjects: 0%
  TEAE Nausea, subjects: 49.0%
  TEAE Pruritus, subjects: 6.1%
  TEAE Somnolence, subjects: 10.2%
  TEAE Vomiting, subjects: 20.4%
  deaths: 0
  subjects with SAE's: 0
  subjects with TEAE(s): 38 (77.6) n (%)
  subjects with TEAE(s), related: 32 (65.3) n (%)
  subjects with TEAE(s), serious: 0 n (%)
  total number of TEAE's: 125 n
  total number of TEAE's, related: 74 (59.2) n (%)
[3]; single dose 600 μg
  LS mean Δplacebo, sum of pain intensity differences: −13.98
  LS mean, sum of pain intensity differences: 35.15
  Sum of pain intensity differences, LS mean Δplacebo: −13.98
  Sum of pain intensity differences, LS mean: 35.15
  TEAE ASAT increased, subjects: 1.8%
  TEAE Dizziness, subjects: 26.3%
  TEAE Hot flush, subjects: 7.0%
  TEAE Hyperhidrosis, subjects: 5.3%
  TEAE Nausea, subjects: 64.9%
  TEAE Pruritus, subjects: 3.5%
  TEAE Somnolence, subjects: 14.0%
  TEAE Vomiting, subjects: 49.1%
  deaths: 0
  subjects with SAE's: 0
  subjects with TEAE(s): 48 (84.2) n (%)
  subjects with TEAE(s), related: 43 (75.4) n (%)
  subjects with TEAE(s), serious: 0 n (%)
  total number of TEAE's: 198 n
  total number of TEAE's, related: 146 (73.7) n (%)
[3]; 200, 400, 600 μg single dose
  Incidence of adverse events, dependence on dose: increased with the dose
